Data from patent publication US9138437B2, “Pyrimidine substituted purine compounds as kinase (S) inhibitors” (VERASTEM, INC., priority 2009, dated 2015).
Converted amounts (≈) assume the structure as drawn.

What was measured:
physchem = conditions: pH 7, aqueous buffer, kinetic from dmso stock
in vitro = conditions: human, microsomes, pH 7.4

Cc1nc2c(-c3cnc(N)nc3)nc(N3CCOCC3)nc2n1C(C)C [5-(9-isopropyl-8-methyl-2-morpholin-4-yl-9H-purin-6-yl)-pyrimidin-2-ylamine]
solubility (physchem): 178 µM (≈ 63.1 µg/mL)
half-life (in vitro): > 1 h
